{"source": "ChEMBL document CHEMBL5512680", "about": "“Design, Synthesis, and Biological Evaluation of New 2,6,7-Substituted Purine Derivatives as Toll-like Receptor 7 Agonists for Intranasal Vaccine Adjuvants” (J Med Chem, 2024)", "biological_target": "T1, Toll-like receptor 7 (Mus musculus) (UniProt P58681)", "T1 sequence (whole entry)": "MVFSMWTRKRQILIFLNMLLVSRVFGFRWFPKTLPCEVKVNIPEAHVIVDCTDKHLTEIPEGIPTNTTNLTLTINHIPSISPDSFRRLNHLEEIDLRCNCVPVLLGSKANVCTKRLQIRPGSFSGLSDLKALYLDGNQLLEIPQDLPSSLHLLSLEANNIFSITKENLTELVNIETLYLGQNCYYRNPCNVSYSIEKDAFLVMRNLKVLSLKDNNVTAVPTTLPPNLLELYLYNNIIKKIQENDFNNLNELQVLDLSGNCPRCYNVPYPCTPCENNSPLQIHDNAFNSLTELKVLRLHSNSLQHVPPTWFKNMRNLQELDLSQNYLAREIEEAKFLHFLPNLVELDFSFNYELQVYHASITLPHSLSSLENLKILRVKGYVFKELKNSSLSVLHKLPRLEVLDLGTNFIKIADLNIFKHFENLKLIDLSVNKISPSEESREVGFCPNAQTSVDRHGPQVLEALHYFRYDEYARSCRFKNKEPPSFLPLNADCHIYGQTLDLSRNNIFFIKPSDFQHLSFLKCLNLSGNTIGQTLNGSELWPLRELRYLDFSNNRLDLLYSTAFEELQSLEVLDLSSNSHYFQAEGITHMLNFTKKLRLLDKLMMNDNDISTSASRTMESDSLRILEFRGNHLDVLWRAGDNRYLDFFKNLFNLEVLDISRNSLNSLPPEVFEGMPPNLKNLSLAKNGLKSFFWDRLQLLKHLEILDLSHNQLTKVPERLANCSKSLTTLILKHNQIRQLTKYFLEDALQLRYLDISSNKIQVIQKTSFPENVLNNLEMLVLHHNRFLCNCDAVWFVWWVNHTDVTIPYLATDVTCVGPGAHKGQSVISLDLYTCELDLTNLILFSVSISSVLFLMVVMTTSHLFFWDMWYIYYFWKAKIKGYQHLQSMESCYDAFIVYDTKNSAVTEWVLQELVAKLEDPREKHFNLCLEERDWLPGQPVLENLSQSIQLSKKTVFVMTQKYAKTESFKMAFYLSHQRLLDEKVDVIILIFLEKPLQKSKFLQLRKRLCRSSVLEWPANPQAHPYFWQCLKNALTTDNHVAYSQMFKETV", "test": "Agonist activity at mouse TLR7 expressed in HEK293 cells co-expressing NF-kappaB/AP-1 inducible SEAP reporter gene at 33 uM measured for 24 hrs by colorimetric analysis relative to control", "type": "cell-based", "data": [{"smiles": "CCCCNc1nc(N)nc2ncn(Cc3ccc(CN(CC)CC)cc3OC)c12", "values": [{"measurement": "Emax", "value": 0.711, "unit": "%"}]}]}
